Screening results from PubChem.
In the library only some 4.2% were active in any assay of this set; here they are far more common.
HDAC3 inh: human HDAC3 inhibition; recombinant HDAC3, fluorogenic peptide/trypsin coupled, fluorescence; inhibition, % at 8.3 µM; 320,000 compounds, 0.15% hits; in the data active = inhibition above about 26%, passing the limit was not always enough; inconclusive = no clear call, values can overlap the other calls
UUG fidelity: alters start codon recognition fidelity in yeast | S. cerevisiae UUG-firefly luciferase reporter, luminescence/redox ratio | activity score, % at 18.7 µM | hit rate 0.13% among 350,000 | AID 602363;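 active means replicate mean at a twofold rise or more, about +100% in these data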;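 further: firefly luciferase made from a UUG start codon reports start codon fidelity; reporter light over untreated wells divided by growth signal over untreated wells; some hits fall short of that in this replicate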
NALP1 inh: blocks the NALP1 inflammasome reconstituted in yeast; AID 2071; 280,000 compounds, 0.61% hits; S. cerevisiae NALP1/ASC/caspase-1 growth, X-gal OD620, 72 h; inhibition, % at 10 µM; in the data active = inhibition mostly above about 24%, no sharp cut-off; inactive = mostly below about 32%
MC4R barr agon: agonists of human melanocortin 4 receptor (MC4R) beta-arrestin. AID 540308. activation, % at 8.9 µM. 360,000 compounds, 0.98% hits. U2OS MC4R beta-arrestin complementation, luminescence; percent of melanotan II response, DMSO zero. P32245;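 active = activation above a per-plate cutoff, the mean activation of sample wells on that plate plus 3 SD, cut at about 8% in these data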
ALR H2O2 inh: human ALR oxidase inhibition via reduced H2O2 | 290,000 compounds, 3.8% hits | inhibition, % (no concentration beside the values) | P55789 | purified ALR, DTT oxidation, H2O2 HRP-luminol luminescence;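 active means mean and each replicate at 75% or more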;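 further: stock transfer was 7.5 nL into about 7.5 µL; 0% = neutral wells and 100% = wells with inactivated enzyme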
MC4R antag cAMP: blocks human MC4R cAMP signaling; P32245; 360,000 compounds, 0.48% hits; MC4R-expressing cells, MTII-stimulated cAMP, LANCE TR-FRET; inhibition, % at 6.5 µM; AID 540295;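 active = inhibition above its plate's cutoff, the mean of tested wells on that plate plus 3 SD, cut at about 29% in these data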
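Material: human MC4R-expressing U2OS cells. Probe or stimulus: Melanotan II challenge. Dosing: 6.5 µM single dose. Times: 30-min compound, 1-h challenge, 1-h detection, room temperature. Technique: TR-FRET with Eu-cAMP and labeled anti-cAMP, 671 nm. Replication: singlicate.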
Hits are given with their value; i = inactive; ? = inconclusive; nt = no result.

SMILES	HDAC3 inh	UUG fidelity	NALP1 inh	MC4R barr agon	ALR H2O2 inh	MC4R antag cAMP
Cc1ccc(C2C(C#N)=C(N)Oc3cc(N)ccc32)cc1 (stereo not given)	i	i	i	i	96	i
N#CC1=C(N)Oc2cc(N)ccc2C1c1ccsc1 (stereo not given)	i	nt	i	i	i	i
Cc1[nH]nc2c1C(C1CC=CCC1)C(C#N)=C(N)O2 (stereo not given)	i	i	i	i	nt	i
N#CC1=C(N)Oc2cc(N)ccc2C1C1CC=CCC1 (stereo not given)	i	i	i	i	93	i
Cc1ccc(C(=O)Nc2ccsc2C(=O)O)cc1	i	nt	i	i	nt	i
O=C(Nc1ccsc1C(=O)O)c1ccc(Cl)cc1	i	i	i	i	97	i
NC(=S)NNc1c(F)c(F)c(F)c(F)c1F	i	nt	i	i	98	i
CN(C)c1ccc(/C=c2\sc3n(c2=O)CCCN=3)cc1	?	nt	i	i	99	i
O=c1/c(=C/c2ccc(O)cc2)sc2n1CCCN=2	i	nt	i	i	98	i
O=c1/c(=C\c2ccc(F)cc2)sc2n1CCCN=2	i	nt	i	i	i	i
COc1ccc(NC(=O)N(C)C[C@@H]2Oc3ccc(NC(=O)NC(C)C)cc3CC(=O)N([C@@H](C)CO)C[C@H]2C)cc1	nt	i	nt	nt	nt	nt
O=C(c1cccnc1)N1CC[C@@H]2[C@H](CO)Nc3ccc(-c4ccc(F)cc4)cc3[C@@H]21	nt	i	nt	nt	nt	nt
O=C(C[C@@H]1C=C[C@H](NC(=O)c2ccccc2)[C@@H](CO)O1)NCc1ccncn1	nt	i	nt	nt	nt	nt
COc1ccc(C(=O)c2c(NC(C)=O)sc3c2CCN(C(=O)OC(C)(C)C)C3)cc1	i	i	44	i	i	i
C[C@H]1CN([C@@H](C)CO)C(=O)c2cc(NC(=O)Nc3ccc4c(c3)OCO4)ccc2O[C@@H]1CN(C)Cc1ccc(-c2ccccc2)cc1	nt	i	nt	nt	nt	nt
O=C1COc2ccc(S(=O)(=O)CCC(=O)N3CCN(c4ccccc4)CC3)cc2N1	i	i	i	i	98	i
Cc1ccc(C)c(N2CCN(C(=O)CCS(=O)(=O)c3ccc4c(c3)NC(=O)CO4)CC2)c1	i	i	i	i	i	i
COc1ccc(N2CCN(C(=O)CCC(=O)N3CCOc4ccc(C)cc43)CC2)cc1	i	i	i	i	97	i
CC(=O)N1CCN(C(=O)CCNS(=O)(=O)c2ccccc2)CC1	i	i	nt	i	i	i
O=C(CCNS(=O)(=O)c1ccccc1)N1CCN(c2ccccc2)CC1	i	i	i	i	96	i
COc1cccc(N2CCN(C(=O)CCS(=O)(=O)c3ccc4c(c3)oc(=O)n4C)CC2)c1	i	i	i	i	98	i
CCCC#Cc1cnc2c(c1)C(=O)N([C@H](C)CO)C[C@H](C)[C@H](CN(C)C(=O)c1cccc(F)c1)O2	nt	i	nt	nt	nt	nt
CCC(=O)N[C@H]1CC[C@H](CCNC(=O)Nc2ccc(F)cc2)O[C@H]1CO	nt	i	nt	nt	nt	nt
O=C(C[C@@H]1C[C@@H]2c3cc(NC(=O)Nc4ccccc4F)ccc3O[C@@H]2[C@H](CO)O1)NCc1ccncc1	nt	i	nt	nt	nt	nt
C[C@H](CO)N1C[C@H](C)[C@H](CN(C)C(=O)NC2CCCCC2)OCCCC[C@H](C)Oc2ccc(NC(=O)Nc3ccc(F)cc3)cc2C1=O	nt	i	nt	nt	nt	nt
SMILES	HDAC3 inh	UUG fidelity	NALP1 inh	MC4R barr agon	ALR H2O2 inh	MC4R antag cAMP
O=C(CCS(=O)(=O)Cc1ccccc1)N1CCN(c2ccc([N+](=O)[O-])cc2)CC1	i	i	i	i	i	i
Cc1ccc(OCCC(=O)N2CCN(c3ccc(O)cc3)CC2)cc1	nt	nt	38	i	100	i
O=C(CCS(=O)(=O)Cc1ccccc1)N1CCN(c2ccccc2)CC1	i	nt	i	i	99	i
O=C(CCS(=O)(=O)c1ccc(Br)cc1)N1CCN(c2ccccc2)CC1	i	i	i	i	99	i
O=C(CCS(=O)(=O)c1ccccc1)N1CCN(c2ccccc2)CC1	i	i	i	i	99	i
Cn1cnc(S(=O)(=O)N[C@@H]2CC[C@@H](CC(=O)N3CCN(c4ccccc4)CC3)O[C@@H]2CO)c1	nt	i	nt	nt	nt	nt
C[C@@H]1CN([C@H](C)CO)S(=O)(=O)c2ccc(C#CC3CC3)cc2O[C@H]1CN(C)C(=O)c1ccccn1	nt	i	nt	nt	nt	nt
O=C(CCS(=O)(=O)c1ccc(Cl)cc1)N1CCN(c2ccccc2F)CC1	i	i	28	i	nt	i
Cc1ccc(S(=O)(=O)CCC(=O)N2CCN(c3ccccc3F)CC2)cc1	i	i	i	i	i	i
COc1ccc(N2CCN(C(=O)CCNS(=O)(=O)c3ccc(C)cc3)CC2)cc1	i	i	i	i	99	i
O=C(CNc1ccccc1)N/N=C/c1c[nH]c2ccccc12	i	nt	i	i	89	i
Cc1nc(N)sc1C(=O)N/N=C/c1c[nH]c2ccccc12	i	i	i	i	91	i
C[C@@H]1CN([C@@H](C)CO)C(=O)Cc2cc(NC(=O)Nc3ccc(C(F)(F)F)cc3)ccc2O[C@@H]1CN(C)C(=O)NC1CCCCC1	nt	i	nt	nt	nt	nt
Cc1ccc2c(cnn2C(=O)CCCC(=O)NCc2ccc(Cl)cc2)c1	i	i	i	8.6	i	i
Cc1ccc(CNC(=O)CCC(=O)n2ncc3cc(C)ccc32)cc1	i	i	i	i	i	i
NCC[C@H]1CC[C@H](NC(=O)NC2CCCCC2)[C@H](CO)O1	nt	i	nt	nt	nt	nt
CC(C)(C)OC(=O)N/N=C/c1ccc(N2CCOCC2)s1	i	nt	i	i	83	i
Nc1ccc(C(=O)N/N=C/c2ccc(N3CCOCC3)s2)cc1	i	i	nt	i	nt	i
CCC(=O)N1CCCCN2[C@@H](CO)[C@@H](c3ccc(C#Cc4cccnc4)cc3)[C@@H]2C1	nt	i	nt	nt	nt	nt
Nc1cnc(Nc2ccc(Br)cc2)nc1N	i	i	i	i	96	i
COc1ccccc1N1C(=O)CC(Sc2n[nH]c(-c3cccc(C)c3)n2)C1=O (stereo not given)	i	i	73	i	99	i
C[C@H]1CN([C@@H](C)CO)C(=O)c2cc(NS(=O)(=O)c3ccc(Cl)cc3)ccc2O[C@H]1CN(C)CC1CCCCC1	nt	i	nt	nt	nt	nt
Cc1ccc(N2C(=O)SC(N(CC(=O)O)c3cccc(C)c3)C2=O)cc1 (stereo not given)	i	i	i	i	99	i
O=C(NCCN1CCOCC1)NC1(C(F)(F)F)Oc2ccc(Cl)cc2O1 (stereo not given)	i	nt	i	i	99	i
C=CCn1c(SCC(=O)c2ccc(OC)cc2)nnc1-c1ccc2c(c1)OCO2	i	nt	i	i	98	i
C=CCn1c(SCC(=O)c2ccc(Cl)cc2)nnc1-c1ccc2c(c1)OCO2	i	nt	i	i	92	i
C=CCn1c(SCC(=O)Nc2ccc3c(c2)OCO3)nnc1-c1ccccc1OC	i	i	i	i	i	i
C[C@H](CO)N1C[C@H](C)[C@H](CN(C)C(=O)Cc2ccccc2)OCCCC[C@H](C)Oc2ccc(NS(=O)(=O)c3ccc(F)cc3)cc2C1=O	nt	i	nt	nt	nt	nt
